By UniProt entry, the sequences of proteins in these tests, tags left out.
UniProt P47871, whole entry: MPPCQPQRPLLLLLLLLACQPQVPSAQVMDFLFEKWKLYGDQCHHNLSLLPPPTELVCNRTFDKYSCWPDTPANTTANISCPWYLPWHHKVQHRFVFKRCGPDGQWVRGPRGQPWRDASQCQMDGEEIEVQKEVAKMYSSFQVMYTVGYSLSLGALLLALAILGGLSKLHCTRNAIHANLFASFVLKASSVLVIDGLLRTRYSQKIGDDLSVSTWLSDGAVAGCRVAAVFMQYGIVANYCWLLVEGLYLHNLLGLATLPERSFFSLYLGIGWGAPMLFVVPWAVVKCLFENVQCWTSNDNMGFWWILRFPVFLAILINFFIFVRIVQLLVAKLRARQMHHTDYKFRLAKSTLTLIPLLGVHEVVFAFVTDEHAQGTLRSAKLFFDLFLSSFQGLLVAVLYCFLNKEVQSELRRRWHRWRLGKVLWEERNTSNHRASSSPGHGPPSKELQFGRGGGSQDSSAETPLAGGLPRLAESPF
UniProt P43220, whole entry: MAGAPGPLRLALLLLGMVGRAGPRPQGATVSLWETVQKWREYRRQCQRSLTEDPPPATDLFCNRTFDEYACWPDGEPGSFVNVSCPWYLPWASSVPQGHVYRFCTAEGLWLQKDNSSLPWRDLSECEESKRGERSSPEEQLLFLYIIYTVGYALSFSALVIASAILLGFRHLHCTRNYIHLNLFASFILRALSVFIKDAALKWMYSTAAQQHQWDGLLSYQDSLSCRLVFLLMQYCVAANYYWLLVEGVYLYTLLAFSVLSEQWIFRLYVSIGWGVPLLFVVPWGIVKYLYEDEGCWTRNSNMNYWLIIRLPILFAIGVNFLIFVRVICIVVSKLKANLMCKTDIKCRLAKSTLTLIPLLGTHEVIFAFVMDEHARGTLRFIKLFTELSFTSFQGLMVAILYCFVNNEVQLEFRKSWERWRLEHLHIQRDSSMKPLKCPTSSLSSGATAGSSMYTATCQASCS

According to ChEMBL document CHEMBL6134892, “Discovery and Evaluation of DA-302168S as an Efficacious Oral Small-Molecule Glucagon-Like Peptide-1 Receptor Agonist” (J Med Chem, 2025):

Experiments:
[1] = test system: HEK293; assay: Agonist activity at dog GLP-1R expressed in HEK293 cells assessed as maximum efficacy by cAMP accumulation assay relative to control; type: cell-based; settings: Canis lupus familiaris
[2] = test system: Mus musculus; assay: Hypoglycemic activity in hGLP-1R male transgenic mouse assessed as reduction in blood glucose level at 0.1 mg/kg, po administered 1 hrs prior to glucose challenge measured up to 120 mins by IPGTT; type: functional, organism-based; settings: time <= 180.0 min
[3] = biological target: T1, Glucagon-like peptide 2 receptor (Homo sapiens) (UniProt O95838); assay: Activation of human GLP-2R expressed in HEK293 cells by cAMP accumulation assay; type: functional, cell-based
T1 sequence (whole entry): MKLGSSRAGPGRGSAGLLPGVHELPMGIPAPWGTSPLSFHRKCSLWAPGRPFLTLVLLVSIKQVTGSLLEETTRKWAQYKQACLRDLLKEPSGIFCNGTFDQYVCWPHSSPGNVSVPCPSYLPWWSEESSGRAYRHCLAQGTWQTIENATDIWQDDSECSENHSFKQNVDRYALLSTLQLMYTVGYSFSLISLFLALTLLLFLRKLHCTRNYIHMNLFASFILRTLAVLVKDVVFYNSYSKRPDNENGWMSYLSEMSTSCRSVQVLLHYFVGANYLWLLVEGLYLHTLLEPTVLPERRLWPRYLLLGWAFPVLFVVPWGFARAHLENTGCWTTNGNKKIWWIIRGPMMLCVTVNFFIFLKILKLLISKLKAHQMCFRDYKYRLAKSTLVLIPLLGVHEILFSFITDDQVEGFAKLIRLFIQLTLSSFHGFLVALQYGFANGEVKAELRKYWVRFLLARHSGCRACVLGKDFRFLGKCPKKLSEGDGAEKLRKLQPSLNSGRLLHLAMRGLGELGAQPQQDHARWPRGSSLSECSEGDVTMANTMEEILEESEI

[4] = test system: Cynomolgus monkey; assay: Hypoglycemic activity in cynomolgus monkey assessed as increase in insulin secretion at 3 mg/kg, po administered 2 hrs prior to glucose challenge measured within 60 mins by IVGTT; type: functional, organism-based; settings: Macaca fascicularis, time 180.0 min
[5] = biological target: T2, Glucagon-like peptide 1 receptor (Mus musculus) (UniProt O35659); assay: Agonist activity at mouse GLP-1R expressed in HEK293 cells assessed as maximum efficacy by cAMP accumulation assay relative to control; type: functional, cell-based
T2 sequence (whole entry): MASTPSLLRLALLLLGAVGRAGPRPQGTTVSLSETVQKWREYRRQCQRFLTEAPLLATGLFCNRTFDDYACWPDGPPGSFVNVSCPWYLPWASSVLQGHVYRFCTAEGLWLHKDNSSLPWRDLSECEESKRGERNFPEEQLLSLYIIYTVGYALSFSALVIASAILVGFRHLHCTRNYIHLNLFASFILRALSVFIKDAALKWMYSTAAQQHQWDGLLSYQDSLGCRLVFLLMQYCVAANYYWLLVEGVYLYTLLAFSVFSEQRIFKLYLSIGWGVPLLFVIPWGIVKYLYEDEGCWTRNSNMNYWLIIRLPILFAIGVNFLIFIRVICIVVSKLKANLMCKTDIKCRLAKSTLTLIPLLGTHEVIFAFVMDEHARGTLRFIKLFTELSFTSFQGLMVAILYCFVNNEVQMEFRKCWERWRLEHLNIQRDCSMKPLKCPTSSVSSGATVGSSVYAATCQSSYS

[6] = test system: Mus musculus; assay: Hypoglycemic activity in hGLP-1R male transgenic mouse assessed as reduction in blood glucose level at 0.025 to 1 mg/kg, po administered 1 hrs prior to glucose challenge measured up to 120 mins by IPGTT; type: functional, organism-based; settings: dose 0.025-1 mg/kg, time <= 180.0 min
[7] = biological target: T3, Glucagon-like peptide 1 receptor (Rattus norvegicus) (UniProt P32301); assay: Agonist activity at rat GLP-1R expressed in HEK293 cells assessed as maximum efficacy by cAMP accumulation assay relative to control; type: functional, cell-based
T3 sequence (whole entry): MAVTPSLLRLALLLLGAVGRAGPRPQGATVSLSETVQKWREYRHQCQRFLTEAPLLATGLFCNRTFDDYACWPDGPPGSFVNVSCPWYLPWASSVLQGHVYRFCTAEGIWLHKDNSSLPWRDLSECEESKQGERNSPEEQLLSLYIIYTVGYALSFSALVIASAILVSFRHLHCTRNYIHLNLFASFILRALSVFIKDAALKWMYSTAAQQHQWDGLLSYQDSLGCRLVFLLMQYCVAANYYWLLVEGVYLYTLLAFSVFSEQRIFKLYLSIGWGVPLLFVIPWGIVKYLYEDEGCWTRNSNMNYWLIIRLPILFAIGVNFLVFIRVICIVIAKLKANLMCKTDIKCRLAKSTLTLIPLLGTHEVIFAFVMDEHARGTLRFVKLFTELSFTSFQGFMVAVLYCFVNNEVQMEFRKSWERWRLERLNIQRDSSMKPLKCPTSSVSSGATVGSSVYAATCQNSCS

[8] = test system: Mus musculus; assay: Anti-obesity activity in hGLP-1R male transgenic mouse assessed as decrease in food consumption administered orally and measured for 24 hrs; type: functional, organism-based; settings: dose 1-10 mg/kg, route po
[9] = test system: Cynomolgus monkey; assay: Hypoglycemic activity in po dosed cynomolgus monkey assessed as reduction in blood glucose level administered 2 hrs prior to glucose challenge measured within 60 mins by IVGTT; type: functional, organism-based; settings: Macaca fascicularis, dose 3-10 mg/kg, time 180.0 min
[10] = test system: HEK293; assay: Agonist activity at cynomolgus monkey GLP-1R expressed in HEK293 cells assessed as maximum efficacy by cAMP accumulation assay relative to control; type: cell-based; settings: Macaca fascicularis, filed as agonist
[11] = biological target: Glucagon receptor (Homo sapiens) (UniProt P47871); assay: Activation of human GCGR expressed in HEK293 cells by cAMP accumulation assay; type: functional, cell-based
[12] = biological target: T4, Gastric inhibitory polypeptide receptor (Homo sapiens) (UniProt P48546); assay: Activation of human GIP receptor expressed in HEK293 cells by cAMP accumulation assay; type: functional, cell-based
T4 sequence (whole entry): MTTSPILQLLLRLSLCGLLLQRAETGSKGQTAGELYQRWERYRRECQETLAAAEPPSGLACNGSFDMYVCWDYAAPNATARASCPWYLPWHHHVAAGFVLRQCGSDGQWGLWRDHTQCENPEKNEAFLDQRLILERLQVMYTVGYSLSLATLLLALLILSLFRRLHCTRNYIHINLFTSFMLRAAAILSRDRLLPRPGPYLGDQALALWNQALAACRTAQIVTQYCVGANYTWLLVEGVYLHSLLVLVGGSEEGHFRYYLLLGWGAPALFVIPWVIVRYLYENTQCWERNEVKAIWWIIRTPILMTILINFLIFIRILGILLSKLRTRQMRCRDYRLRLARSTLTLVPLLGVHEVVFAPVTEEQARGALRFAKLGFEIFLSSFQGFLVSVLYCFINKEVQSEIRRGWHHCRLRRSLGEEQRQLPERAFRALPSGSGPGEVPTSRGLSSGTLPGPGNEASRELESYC

[13] = biological target: Glucagon-like peptide 1 receptor (Homo sapiens, UniProt P43220); assay: Agonist activity at human GLP-1R expressed in HEK293 cells assessed as maximum efficacy by cAMP accumulation assay relative to control; type: functional, cell-based; settings: filed as agonist
[14] = test system: Mus musculus; assay: Hypoglycemic activity in hGLP-1R male transgenic mouse assessed as increase in insulin secretion at 0.3 mg/kg, po administered 1 hrs prior to glucose challenge measured up to 120 mins by IPGTT; type: functional, organism-based; settings: time <= 180.0 min
[15] = test system: Mus musculus; assay: Anti-obesity activity in hGLP-1R male transgenic mouse assessed as decrease in food uptake at 3 mg/kg administered orally and measured for 24 hrs; type: functional, organism-based; settings: route po

Activity [3]: inactive
Emax [5]: 1.77%
Emax [7]: 22.6%
Activity [11]: inactive
Activity [12]: inactive
Emax [13]: 101%
Compound: O=C(O)c1ccc2nc(Cc3ccc(-c4ccc(F)c(OCc5ccc(Cl)c6ccoc56)n4)cc3F)n(C[C@@H]3CCO3)c2c1
Emax [1]: 2.34%
Activity [2]: Active; Compound Showed Superior Activity Than Danuglipron
Activity [4]: Active
Activity [6]: Active
Activity [8]: Dose-dependent-effect
Activity [9]: Dose-dependent-effect
Emax [10]: 99.9%
Activity [14]: Active
Activity [15]: Active; Compound Showed Significant Reduction In Food Uptake Than Danuglipron

Calls of active or inactive are those of the source. The rule behind the calls is not given here.
